This passage reports IC50 results from US20050250794A1, “Methods of treating a disorder” (priority 2003, published 2005).

The target of this experiment is T1, human SirT1 (Homo sapiens, UniProt Q96EB6).
T1 construct: purchased Biomol SE-239
T1 sequence (Q96EB6 1-747): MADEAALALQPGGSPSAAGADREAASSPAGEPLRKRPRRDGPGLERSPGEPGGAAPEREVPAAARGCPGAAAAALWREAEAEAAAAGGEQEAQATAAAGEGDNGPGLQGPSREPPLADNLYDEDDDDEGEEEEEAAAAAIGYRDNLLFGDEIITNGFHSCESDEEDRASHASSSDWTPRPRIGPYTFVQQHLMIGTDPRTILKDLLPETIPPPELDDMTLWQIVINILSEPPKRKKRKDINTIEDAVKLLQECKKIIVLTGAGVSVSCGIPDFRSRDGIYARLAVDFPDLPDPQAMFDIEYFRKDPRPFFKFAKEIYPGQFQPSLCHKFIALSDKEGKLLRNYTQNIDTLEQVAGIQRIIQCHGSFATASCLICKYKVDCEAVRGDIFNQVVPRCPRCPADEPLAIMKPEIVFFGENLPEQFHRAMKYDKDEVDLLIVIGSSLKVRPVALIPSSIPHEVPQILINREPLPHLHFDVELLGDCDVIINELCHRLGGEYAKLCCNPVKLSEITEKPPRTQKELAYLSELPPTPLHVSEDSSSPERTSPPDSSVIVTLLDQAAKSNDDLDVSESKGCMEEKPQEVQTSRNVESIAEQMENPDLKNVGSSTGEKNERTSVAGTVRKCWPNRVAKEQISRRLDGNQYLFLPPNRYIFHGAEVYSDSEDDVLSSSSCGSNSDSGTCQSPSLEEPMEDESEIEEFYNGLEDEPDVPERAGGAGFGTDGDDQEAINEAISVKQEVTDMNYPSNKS
Description: SirT1 Fluor de Lys enzymatic deacetylase assay. In kind it is biochemical. From the text: An exemplary assay method includes a 1536 well format of the SirT1 enzymatic assay that is based on the commercial “Fluor-de-Lys” assay principle by Biomol, which is fluorogenic (www.biomol.com/store/Product_Data_PDFs/ak500.pdf). In this assay, deacetylation of the e-amino function of a lysyl residue is coupled to a fluorogenic “development step that is dependent on the unblocked e-amino functionality and generates fluorescent aminomethylcoumarin. Fluorescence can be read on a commercial macroscopic reader.
Step Description • 1 Prepare amount of 2× Substrates necessary for the number of wells to be assayed.

On to `NC(=O)c1cc(-c2ccccc2)sc1N` [Compound 37, 2-Amino-5-phenyl-thiophene-3-carboxylic acid amide], for which the IC50 (usually the point on the concentration scale where inhibition reaches its midpoint) is greater than 10 µM.
